Results reported in ChEMBL document CHEMBL1133656, “Structural determinants of efficacy for kappa opioid receptors in the orvinol series: 7,7-spiro analogues of buprenorphine” (2000).

Chains of the proteins cited; added tags and fusions are not shown.
UniProt P41143, whole entry: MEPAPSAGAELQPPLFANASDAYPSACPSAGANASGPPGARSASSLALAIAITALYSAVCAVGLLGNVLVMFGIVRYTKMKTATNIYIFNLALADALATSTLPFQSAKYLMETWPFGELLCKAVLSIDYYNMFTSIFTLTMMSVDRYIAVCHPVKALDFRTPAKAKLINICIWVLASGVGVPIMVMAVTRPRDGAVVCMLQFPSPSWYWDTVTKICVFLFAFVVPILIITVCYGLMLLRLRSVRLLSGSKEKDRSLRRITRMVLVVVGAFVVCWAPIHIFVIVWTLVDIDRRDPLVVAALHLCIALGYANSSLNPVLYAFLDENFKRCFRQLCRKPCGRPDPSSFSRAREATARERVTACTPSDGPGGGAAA
UniProt P41145, whole entry: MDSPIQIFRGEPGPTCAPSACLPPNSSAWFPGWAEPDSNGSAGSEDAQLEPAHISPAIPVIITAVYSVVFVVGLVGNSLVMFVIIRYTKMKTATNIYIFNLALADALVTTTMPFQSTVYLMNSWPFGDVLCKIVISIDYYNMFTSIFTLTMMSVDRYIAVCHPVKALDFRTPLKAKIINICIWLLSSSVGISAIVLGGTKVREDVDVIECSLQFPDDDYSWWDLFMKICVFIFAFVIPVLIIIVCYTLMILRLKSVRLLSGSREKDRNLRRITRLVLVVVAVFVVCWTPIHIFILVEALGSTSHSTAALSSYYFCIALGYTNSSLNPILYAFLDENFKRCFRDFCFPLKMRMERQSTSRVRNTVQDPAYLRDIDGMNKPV
UniProt P35372, whole entry: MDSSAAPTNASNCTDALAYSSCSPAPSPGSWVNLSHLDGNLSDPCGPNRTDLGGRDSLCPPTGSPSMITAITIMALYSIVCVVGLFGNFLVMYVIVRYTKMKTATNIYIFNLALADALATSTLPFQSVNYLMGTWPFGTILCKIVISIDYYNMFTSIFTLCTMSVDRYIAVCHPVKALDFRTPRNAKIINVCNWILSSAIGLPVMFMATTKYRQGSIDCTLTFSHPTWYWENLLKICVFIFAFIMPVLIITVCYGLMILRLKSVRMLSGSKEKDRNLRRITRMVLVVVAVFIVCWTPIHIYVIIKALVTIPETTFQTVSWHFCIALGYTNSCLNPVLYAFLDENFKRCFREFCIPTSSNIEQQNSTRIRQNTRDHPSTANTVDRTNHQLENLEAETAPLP

What was measured:
[1] = biological target: T1, Delta-type opioid receptor (Homo sapiens, UniProt P41143); experiment: Binding affinity to cloned human Opioid receptor delta 1 transfected into hamster ovary cells using [3H]DPDPE as a radioligand.
[2] = biological target: T1, Delta-type opioid receptor; experiment: GTPgammaS binding in cloned human Opioid receptor delta 1 transfected into hamster ovary cells
[3] = biological target: T2, Kappa-type opioid receptor (Homo sapiens, UniProt P41145); experiment: GTPgammaS binding in cloned human Opioid receptor kappa 1 transfected into hamster ovary cells
[4] = biological target: T2, Kappa-type opioid receptor; experiment: Binding affinity to cloned human Opioid receptor kappa 1 transfected into hamster ovary cells using [3H]U-69593 as a radioligand.
Mu-type opioid receptor [5] = biological target: T3, Mu-type opioid receptor (Homo sapiens, UniProt P35372); experiment: GTPgammaS binding in cloned human Opioid receptor mu 1 transfected into hamster ovary cells
Mu-type opioid receptor [6] = biological target: T3, Mu-type opioid receptor; experiment: Binding affinity to cloned human Opioid receptor mu 1 transfected into hamster ovary cells using [3H]DAMGO as a radioligand.

Compound | Ki [1] | EC50 [2] | EC50 [3] | Ki [4] | EC50 (Mu-type opioid receptor [5]) | Ki (Mu-type opioid receptor [6])
CO[C@]12C=CC3(CC14CCC(C)(C)[C@H]4O)C1Cc4ccc(O)c5c4C3(CCN1C)[C@@H]2O5 (stereo partly specified) | 8.47 nM | 18.6 nM | 1.6 nM | 1.28 nM |  | 
CO[C@]12C=CC3(CC14CCC(C)(C)[C@H]4O)C1Cc4ccc(O)c5c4C3(CCN1CC1CC1)[C@@H]2O5 (stereo partly specified) | 5.42 nM | 1.1 nM | 0.1 nM | 3.12 nM | 4.2 nM | 0.59 nM
CO[C@]12C=CC3(CC14CCC[C@H]4O)C1Cc4ccc(O)c5c4C3(CCN1CC1CC1)[C@@H]2O5 (stereo partly specified) | 0.69 nM | 0.3 nM | 0.04 nM | 1.04 nM | 2.8 nM | 0.32 nM
